Measurements from the NIST ThermoML archive (doi:10.1016/j.fluid.2009.07.002).

Experiment: xn = mol fraction of the nth substance listed
Settings: 101 kPa, Liquid, Taylor dispersion method

OCCOCCOCCOCCO [tetraethylene glycol] + O
binary diffusion coefficient [m2/s]
Settings | 303.2 K | 308.2 K | 313.2 K | 318.2 K | 323.2 K
x1 = 0 | 7.06e-10 | 7.85e-10 | 8.82e-10 | 9.55e-10 | 1.07e-09
x1 = 0.2 | 2.39e-10 | 2.84e-10 | 3.33e-10 | 3.95e-10 | 4.68e-10
x1 = 0.4 | 1.96e-10 | 2.24e-10 | 2.63e-10 | 3.16e-10 | 3.67e-10
x1 = 0.6 | 1.63e-10 | 1.95e-10 | 2.38e-10 | 2.81e-10 | 3.34e-10
x1 = 0.8 | 1.51e-10 | 1.87e-10 | 2.19e-10 | 2.6e-10 | 3.18e-10
